The series deals with kanamycin A. The experiment in a line: purified protein, by the assay type. Conditions: other: Eis_Msm, pH 8.0.
Where [1] appears, read: fixed AcCoA 0.1 mM, varying AG, 25 °C.
Where [2] appears, read: KAN acetylation, [AcCoA] 200 μM, 25.0 °C.
[3] abbreviates: KAN acetylation, [AcCoA] 500 μM, 25.0 °C.
Setting [4] is: random sequential mechanism, 25.0 °C.

The values that follow come from paper PMC3426641 (Biochemistry, 2012).

For orientation: Km means the concentration of substrate that gives half-maximal velocity. One may read the kcat as the maximal rate divided by the concentration of active sites.

For “Eis_Msm (Mycolicibacterium smegmatis MC2 155)”, the Km runs as follows: under setting [1], 278 ± 36 µM; under setting [2], 450 ± 31 µM; under setting [3], 756 ± 66 µM. Also, the kcat stood at 0.108 s⁻¹ under setting [1], 0.18 s⁻¹ under setting [2], 0.4 s⁻¹ under setting [3] and 1.6 ± 0.5 s⁻¹ under setting [4]. The kcat/Km under setting [4] came out at 630 ± 200 s^−1M^−1.
